# Assay outcomes deposited in PubChem BioAssay by several laboratories.
# Most compounds without a hit are left out; they make up all but 2.3% or so of the library.
# MC4R antagonist: human MC4R antagonism in cAMP assay; P32245; MC4R-expressing cells, MTII-stimulated cAMP, LANCE TR-FRET; inhibition, % at 6.5 µM; 0.48% of 360,000 active; AID 540295;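 active = inhibition above its plate's cutoff, the mean of tested wells on that plate plus 3 SD, cut at about 29% in these data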;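 note: 0% = Melanotan II alone and 100% = Melanotan II plus saturating MCL0020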
#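 Material: U2OS-MC4R stable cell line | Reagent: Melanotan II challenge after compound preincubation | Doses: One concentration, 6.5 µM nominal | Incubation: 30-min compound preincubation, 1-h Melanotan II challenge, 1-h detection, room temperature | Signal: TR-FRET cAMP assay | Replicates: One well per compound, no replicates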
# NRP1-CendR mod: modulators of CendR peptide binding to human neuropilin-1 | O14786 | FAM-RPARPAR peptide binding to NRP-1, fluorescence polarization | inhibition, % at 25 µM | 0.85% of 360,000 active;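 active = inhibition or corrected inhibition above about 18%, plus a signal ratio from 0.5 to 1.5, limit read from the data, passing the limit was not always enough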
# UUG fidelity: modulators of start codon recognition fidelity in yeast; AID 602363; activity score, % at 18.7 µM; S. cerevisiae UUG-firefly luciferase reporter, luminescence/redox ratio; 0.13% of 350,000 active;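 active = replicate mean at a twofold rise or more, about +100% in these data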;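 note: firefly luciferase made from a UUG start codon reports start codon fidelity; reporter light over untreated wells divided by growth signal over untreated wells; some hits fall short of that in this replicate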
# MC4R barr agon: human MC4R agonism via beta-arrestin; 0.98% of 360,000 active; P32245; U2OS MC4R beta-arrestin complementation, luminescence; percent of melanotan II response, DMSO zero; activation, % at 8.9 µM;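 active = activation above a per-plate cutoff, the mean activation of sample wells on that plate plus 3 SD, cut at about 8% in these data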
# ASAP1 GAP inh: blocks human ASAP1-stimulated Arf1 GTP hydrolysis | Q9ULH1 | GDP FP detection | inhibition, % at 16.5 µM | 0.19% of 360,000 active; in the data active = inhibition above about 25%;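 note: 0% = vehicle with enzyme and substrate and 100% = no enzyme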
# ARFGAP1 inhibitor: inhibitors of rat ARFGAP1 | inhibition, % at 16.5 µM | 0.26% of 360,000 active | Arfgap1-stimulated ARF1 GTP hydrolysis, GDP FP detection | AID 651572;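 active = inhibition above a per-plate limit, mean inhibition of low control wells plus 3 SD, cut at about 25% in these data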;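 note: 0% = DMSO wells with enzyme and 100% = wells lacking Arfgap1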
#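 Assay system: Rat Arfgap1 GAP domain (His6, aa 1-136), purified enzyme | Buffer or medium: HEPES 25 mM pH 7.5, NaCl 150 mM, MgCl2, DTT | Schedule: GTP hydrolysis reaction 2 h at 25 °C | Signal: FP of antibody-bound GDP Alexa 633 tracer, ex 620/em 688 nm | Measure: Percent inhibition of Arfgap1-stimulated GTP hydrolysis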
# MC4R barr ag: human MC4R beta-arrestin agonism confirmation; 31% of 2,400 active; AID 602192; activation, % at 8.9 µM; shares compounds with MC4R barr agon; U2OS MC4R beta-arrestin recruitment, luminescence; scaled DMSO 0%, Melanotan II 100%;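 active = mean activation across replicates above the hit cutoff set in the earlier primary screen, cut at about 8% in these data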
# MOR DOR agonist: activates mu-delta opioid heterodimer, MC4R agonist counter-screen; shares compounds with MC4R barr agon; 5.8% of 2,400 active; activation, % at 9.2 µM; AID 602194; U2OS PathHunter beta-arrestin, beta-gal luminescence; percent of deltorphin B response, DMSO zero;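 active = mean activation across replicates exceeds the hit threshold derived in the earlier primary screen, cut at about 18% in these data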;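 note: 100% = deltorphin B at 0.9 µM final and 0% = DMSO alone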
# An asterisk follows results filed as active; . = not tested or not shown.
# Under each structure – MC4R antagonist, NRP1-CendR mod, UUG fidelity, MC4R barr agon, ASAP1 GAP inh, ARFGAP1 inhibitor, MC4R barr ag, MOR DOR agonist
- Clc1ccc(Cn2ncc3c(N4CCN(c5ccccc5)CC4)ncnc32)cc1
→ 25, 4, 9, 11*, 1, 4, 17*, 12
- COc1ccc2c(c1)CCCC2NS(=O)(=O)OCC(Cl)(Cl)Cl (stereo unspecified)
→ 9, 6, -5, 10*, 18, 8, 3, 10
- O=C(Nc1ccc2c(c1)OCO2)c1ccccc1
→ 10, 13, -33, 1, 3, 9, ., .
- O=C(Nc1ccccc1)c1ccc(OC(=O)c2ccccc2)cc1
→ -2, 12, 1, 9.8*, -1, -9, 5, 2
- O=C(Oc1ccc(NC(=O)c2cc3c(cc2Br)OCO3)cc1)c1ccccc1
→ 5, 0, -14, 14*, -4, 13, 6, 6
- Cc1ccc(S(=O)(=O)N[C@@H]2CC[C@H](CCn3cc(C4CCCCC4)nn3)O[C@H]2CO)cc1
→ ., ., -17, ., ., ., ., .
- Cc1cc(C)nc(SCC(=O)Nc2ncc(Cc3cccc(Cl)c3)s2)n1
→ 2, -3, -15, 16*, 5, 7, 8, 3
- C=CCn1c(SCC(=O)Nc2ncc(Cc3ccc(C)c(Cl)c3)s2)nnc1-c1ccncc1
→ 4, -3, -3, 30*, 14, 5, 16*, 3
- C=CCn1c(SCC(=O)Nc2nnc(CC)s2)nnc1-c1ccncc1
→ 25, 6, -21, -3, -6, -5, ., .
- C[C@H]1CN([C@@H](C)CO)C(=O)c2cc(NC(=O)Cn3cnnn3)ccc2O[C@H]1CN(C)C(=O)Nc1ccc(F)cc1
→ ., ., 4, ., ., ., ., .
- CN(C)C(=O)C[C@H]1CC[C@H]2[C@H](COc3ccc(NC(=O)Nc4cccc(Cl)c4)cc3C(=O)N2C)O1
→ ., ., 11, ., ., ., ., .
- COc1ccc(-c2nc3ccccc3[nH]2)cc1
→ -2, 12, ., 2, 14, 17, ., .
- COc1ccc(-c2nc(=S)c3ccc4ccccc4c3[nH]2)cc1
→ -2, -14, ., 12*, -5, -3, -1, 1
- C[C@H](CO)N1C[C@H](C)[C@@H](CN(C)C)Oc2ccc(NS(=O)(=O)c3ccc(F)cc3)cc2CC1=O
→ ., ., -11, ., ., ., ., .
- O=C(COC(=O)c1ccccc1Nc1ccccc1)Nc1ccccc1
→ 4, -3, ., 15*, 3, -5, 3, 8
- CC(=O)c1ccc(NC(=O)COC(=O)c2ccccc2Nc2ccccc2)cc1
→ 4, -5, -21, 10*, 9, -4, 4, 6
- CNC(=O)COC(=O)c1ccccc1Nc1ccccc1
→ 14, 1, -11, -3, -8, -10, ., .
- O=C(NCCc1ccc(Cl)cc1)c1cc(-c2ccccn2)nc2ccccc12
→ 16, 16, -11, 11*, 6, -5, 5, 5
- COCC(=O)N1C[C@H](C)[C@@H](OC)CN(C)C(=O)c2cc(NC(=O)c3ccc(F)cc3)ccc2OC[C@@H]1C
→ ., ., 14, ., ., ., ., .
- COc1ccc(CN(C)C[C@H]2OCCCC[C@H](C)Oc3ccc(NS(=O)(=O)c4ccc(C)cc4)cc3C(=O)N([C@H](C)CO)C[C@@H]2C)cc1
→ ., ., 37, ., ., ., ., .
- CCn1c(CC(=O)Nc2ccc(C)c(Cl)c2)nnc1SCCOc1ccc(OC)cc1
→ -5, -2, 3, 11*, -4, 5, 0, 7
- C[C@@H]1CN([C@H](C)CO)C(=O)c2cc(NC(=O)Nc3ccc4c(c3)OCO4)ccc2O[C@@H](C)CCCCO[C@H]1CN(C)C(=O)c1ccccc1
→ ., ., -3, ., ., ., ., .
- COC(=O)Cc1ccc(NC(=O)c2ccc3c(c2)C(=O)N(Cc2ccco2)C3=O)cc1
→ 11, 0, -8, 5, -12, 11, ., .
- CCc1ccc(NC(=O)c2ccc3c(c2)C(=O)N(Cc2ccco2)C3=O)cc1
→ -10, -30, -10, 11*, 5, -1, 6, 3
- CCCCCCCCCCCCCCCCn1cc[n+](C)c1
→ 16, 7, ., 15*, -3, -20, 30*, 8
- COc1cc(OC)cc(C(=O)OCC(=O)Nc2ccc(N3CCCCC3)cc2)c1
→ -2, 9, -3, 13*, -10, 10, 2, 10
- O=C(COC(=O)c1ccc(O)cc1)Nc1ccc(N2CCCCC2)cc1
→ 4, 0, 7, 0, 20, 5, ., .
- O=C(COC(=O)c1ccccc1OC(F)F)Nc1ccc(N2CCCCC2)cc1
→ -2, 4, -16, 11*, 2, -2, -1, 4
- Cc1ccccc1Cn1cccc1/C=C1/C(=N)N2C=CSC2=NC1=O
→ 1, -123, -20, 14*, 1, 4, 2, 2
- CC(C)c1ccc(-n2cccc2/C=C2/C(=N)N3C=CSC3=NC2=O)cc1
→ 9, -80, -14, 0, -12, -9, ., .
- C/C=C/c1ccc2c(c1)O[C@@H](CN(C)C(=O)CC)[C@@H](C)CN([C@@H](C)CO)S2(=O)=O
→ ., ., 10, ., ., ., ., .
- O=S(=O)(c1ccc(N2CCCC2)nc1)N1CCCC1
→ 15, -2, -12, -1, -4, 8, ., .
- NNc1ccc(S(=O)(=O)N2CCCCC2)cn1
→ 2, 5, ., 12*, -13, 0, -3, 1
- Cc1ccc(Oc2cc([N+](=O)[O-])cc3c2C(=O)Nc2ccccc2O3)cc1
→ 7, -70, ., 14*, 3, 12, 2, 8
- CCCOc1ccc(N2C(=O)CC(NNC(=O)c3ccc(COc4ccccc4)o3)C2=O)cc1 (stereo unspecified)
→ 21, 5, ., 13*, 7, 7, 5, 7
- CCOc1cccc(N2C(=O)CC(NNC(=O)c3ccc(Br)o3)C2=O)c1 (stereo unspecified)
→ 11, 4, ., -1, 0, 8, ., .
- Cc1ccsc1-c1nc(-c2ccccc2)c(-c2ccccc2)[nH]1
→ 0, 6, -9, 10*, -9, -8, 11*, 5
- C[C@H]1CN([C@@H](C)CO)C(=O)c2cc(NC(=O)NC3CCCCC3)ccc2O[C@@H]1CN(C)C(=O)Nc1ccc(F)cc1
→ ., ., -7, ., ., ., ., .
- C=C(C)COc1ccc(-c2nc(N)nc(C)c2Oc2ccccc2OC)c(O)c1
→ 5, -12, -4, 1, -4, 12, ., .
- CCOc1ccc(-c2n[nH]c(C)c2Oc2ccccc2OC)c(O)c1
→ 11, 7, -14, 12*, 2, 3, 3, 7
- C=C(C)COc1ccc(-c2n[nH]c(C)c2Oc2ccccc2OC)c(O)c1
→ 5, 10, -28, 12*, 23, 17, 5, 8

# Full records as entered above. Order of values: MC4R antagonist, NRP1-CendR mod, UUG fidelity, MC4R barr agon, ASAP1 GAP inh, ARFGAP1 inhibitor, MC4R barr ag, MOR DOR agonist
# `C[C@H]1CN([C@@H](C)CO)C(=O)c2cc(NC(=O)NC3CCCCC3)ccc2O[C@@H]1CN(C)C(=O)Nc1ccc(F)cc1` in the list: ., ., -7, ., ., ., ., .
# `C[C@@H]1CN([C@H](C)CO)C(=O)c2cc(NC(=O)Nc3ccc4c(c3)OCO4)ccc2O[C@@H](C)CCCCO[C@H]1CN(C)C(=O)c1ccccc1` in the list: ., ., -3, ., ., ., ., .
# `O=C(COC(=O)c1ccccc1OC(F)F)Nc1ccc(N2CCCCC2)cc1` in the list: -2, 4, -16, 11*, 2, -2, -1, 4
# `CCOc1cccc(N2C(=O)CC(NNC(=O)c3ccc(Br)o3)C2=O)c1` (stereo unspecified) in the list: 11, 4, ., -1, 0, 8, ., .
